Experimental data published in ChEMBL document CHEMBL5042475 (J Med Chem, 2021).

By UniProt entry, the sequences of proteins in these tests, tags left out. Where a name states a change or a piece, a line headed by the entry shows the natural chain unless it says otherwise.
UniProt Q9GZQ6: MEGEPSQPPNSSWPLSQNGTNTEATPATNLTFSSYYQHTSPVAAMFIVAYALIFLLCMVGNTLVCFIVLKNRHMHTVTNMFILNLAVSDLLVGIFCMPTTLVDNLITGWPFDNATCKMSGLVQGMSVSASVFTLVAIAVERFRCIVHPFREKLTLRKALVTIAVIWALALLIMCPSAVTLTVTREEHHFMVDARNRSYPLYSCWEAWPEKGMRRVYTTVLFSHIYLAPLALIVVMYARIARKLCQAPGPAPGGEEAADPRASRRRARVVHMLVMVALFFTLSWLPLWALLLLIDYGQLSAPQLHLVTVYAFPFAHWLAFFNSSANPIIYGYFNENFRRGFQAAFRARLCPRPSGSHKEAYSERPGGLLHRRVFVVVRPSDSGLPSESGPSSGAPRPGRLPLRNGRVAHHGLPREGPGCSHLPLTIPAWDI

Assays:
[1] = target: T1, Neuropeptide FF receptor 1 (Homo sapiens, UniProt Q9GZQ6); assay: Agonist activity at human NPFF1R expressed in HEK293 cells by dynamic mass redistribution assay; type: functional, cell-based
[2] = target: T1, Neuropeptide FF receptor 1; assay: Agonist activity at human NPFF1 receptor expressed in HEK293 cells assessed as reduction in forskolin- stimulated cAMP level; type: functional, cell-based
[3] = target: T1, Neuropeptide FF receptor 1; assay: Displacement of [125I]-1DMeNPFF from recombinant human NPFF1 receptor expressed in CHO cells by TopCount scintillation counting method; type: cell-based

- EC50 [1]: 30 nM
- EC50 [2]: 50 nM
- Ki [3]: 0.01 nM
Compound: CC(C)C[C@H](NC(=O)[C@H](CC(N)=O)NC(=O)[C@@H]1CCCN1C(=O)[C@@H](N)C(C)C)C(=O)N1CCC[C@H]1C(=O)N[C@@H](CCC(N)=O)C(=O)N[C@@H](CCCNC(=N)N)C(=O)N[C@@H](Cc1ccccc1)C(N)=O
